These results are taken from US6337351B1, “Pharmaceutical compositions and methods for use” (Targacept, Inc., priority 1998, dated 2002).

Sequences of proteins named here, by UniProt entry; tags and fusion partners are left off. Residues count along the entry.
UniProt P09483, 31-630: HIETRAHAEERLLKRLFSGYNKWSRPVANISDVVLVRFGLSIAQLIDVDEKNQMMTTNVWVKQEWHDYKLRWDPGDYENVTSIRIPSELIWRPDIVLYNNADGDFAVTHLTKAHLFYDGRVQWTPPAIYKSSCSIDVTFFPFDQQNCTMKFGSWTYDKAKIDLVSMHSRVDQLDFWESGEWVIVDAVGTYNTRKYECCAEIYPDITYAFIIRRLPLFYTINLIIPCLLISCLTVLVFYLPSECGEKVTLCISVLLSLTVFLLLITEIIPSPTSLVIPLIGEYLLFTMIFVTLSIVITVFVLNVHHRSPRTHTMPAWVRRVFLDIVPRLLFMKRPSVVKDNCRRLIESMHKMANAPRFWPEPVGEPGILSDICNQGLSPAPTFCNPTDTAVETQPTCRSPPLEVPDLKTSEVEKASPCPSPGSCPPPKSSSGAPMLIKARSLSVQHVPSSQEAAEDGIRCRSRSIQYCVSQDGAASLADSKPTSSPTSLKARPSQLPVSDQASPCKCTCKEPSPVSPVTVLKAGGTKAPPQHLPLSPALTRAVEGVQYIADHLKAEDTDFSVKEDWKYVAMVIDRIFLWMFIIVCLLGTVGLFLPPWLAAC
UniProt P12390, 25-500: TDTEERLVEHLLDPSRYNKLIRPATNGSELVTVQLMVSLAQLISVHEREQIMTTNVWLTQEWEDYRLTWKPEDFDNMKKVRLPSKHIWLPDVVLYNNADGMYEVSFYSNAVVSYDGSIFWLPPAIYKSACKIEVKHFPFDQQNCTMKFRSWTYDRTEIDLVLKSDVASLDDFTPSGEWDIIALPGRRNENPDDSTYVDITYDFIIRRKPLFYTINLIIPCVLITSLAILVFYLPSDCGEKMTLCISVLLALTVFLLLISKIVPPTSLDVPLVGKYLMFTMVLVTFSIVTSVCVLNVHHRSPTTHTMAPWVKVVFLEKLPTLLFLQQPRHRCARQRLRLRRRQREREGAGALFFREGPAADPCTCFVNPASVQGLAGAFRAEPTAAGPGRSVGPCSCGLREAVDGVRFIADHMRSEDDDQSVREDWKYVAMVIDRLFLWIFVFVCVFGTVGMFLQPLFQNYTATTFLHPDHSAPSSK

This test addresses CNS nicotinic receptors (Rattus norvegicus, UniProt P09483+P12390). As to the kind of experiment: Binding to relevant receptor sites. The note with it: inhibition constants calculated from IC50 values by the method of Cheng et al. The procedure:
Determination of Binding to Relevant Receptor Sites
Binding of the compounds to relevant receptor sites was determined in accordance with the techniques described in U.S. Pat. No. 5,597,919 to Dull et al. Inhibition constants (Ki values), reported in nM, were calculated from the IC50 values using the method of Cheng et al., Biochem, Pharmacol. 22:3099 (1973).

As to “(4E)-N-methyl-5-(3-(dimethylamino)phenyl)-4-penten-2-amine hemigalactarate [Sample No. 8]”, the Ki is 14.4 µM. As for “(4E)-N-methyl-5-(3,4-dichlorophenyl)-4-penten-2-amine hemigalactarate [Sample No. 5]”, the figure is 100 µM.

One may read the Ki as the dissociation constant of the complex between target and ligand, obtained from inhibition or displacement.
